In patent US20250234824A1, “MARKERS ASSOCIATED WITH S[…]” (Syngenta Crop Protection AG, priority 2022, published 2025):

Test system: maize haploids
Assay: Colchicine doubling treatment of BC3 haploids, pollen and kernel phenotypes in the field
Assay type: in vivo
Conditions: BC3 recurrent parent Line 10; SCD Allele; colchicine-treated haploids
Text: To test whether the SCD-QTL1 could be used in combination with a chemical doubling treatment, such as colchicine, and have an additive effect on haploid male fertility, we took the 17 elite BC2 lines from Example 6 through one additional backcross generation to produce a BC3. Genotyping was used to identify heterozygotes at SCD-QTL1, and those materials were then crossed by a haploid inducer, embryos isolated from the immature ears, and haploids regenerated for transplant into the field. Immediately after isolation, embryos from each of the 17 BC3 populations were split into 2 treatment groups. […] Thus, there were 4 treatment groups to compare within each elite BC3 population: (1) SCD-QTL1 with colchicine (haploid male fertility plus colchicine), (2) unfavorable QTL allele with colchicine (positive control), (3) SCD-QTL1 without colchicine (haploid male fertility alone), (4) and unfavorable QTL allele without colchicine (negative control). All lines were planted across three replications of the trial over the course of approximately 6 months, and the data was pooled for analysis.
In this trial, sample sizes were large enough (minimum of 50 haploids per treatment group) to enable statistical analysis to confirm whether observed differences in kernel set between groups with and without the favorable allele of SCD-QTL1 were statistically significant using a Student's T-Test (Table 8). […]

Compound: COc1cc2c(c(OC)c1OC)-c1ccc(OC)c(=O)cc1[C@@H](NC(C)=O)CC2 [Colchicine, colchicine]
- Percent of Plants with Ears >5 kernels: 34.2%
